US12357565B2, “Ocular implant containing a tyrosine kinase inhibitor” (Ocular Therapeutix, Inc., priority 2020, dated 2025)

Conditions: rabbit
[1] = 600 μg axitinib bolus, 1 month, scale 0-5, mean (SD)

CNC(=O)c1ccccc1Sc1ccc2c(/C=C/c3ccccn3)n[nH]c2c1 [axitinib, N-methyl-2-[3-((E)-2-pyridin-2-yl-vinyl)-1H-indazol-6-ylsulfanyl]-benzamide]
IOPs determined weekly (600 μg axitinib bolus): remained within the normal range | Tolerability of intravitreal bolus dosing (600 μg axitinib bolus): generally tolerable | Eyes with minimal retinal disruption with a few macrophages in the photoreceptor layer (600 μg axitinib bolus, 1 month): 1 of 6 | Eyes with minimal retinal vacuolization (600 μg axitinib bolus, 1 month): 4 of 6 | Eyes with minimal to mild chronic subcorneal inflammation (600 μg axitinib bolus, 1 month): 4 of 6 | Gross lesions (600 μg axitinib bolus, 1 month): No gross lesions | Chronic Subcorneal Inflammation score [1]: 0.28 (0.38) | Fibrosis Around the Article score [1]: 0.00 (0.00) | Retinal Vacuolization score [1]: 0.50 (0.46) | Retinal, Scleral, or Episcleral Inflammation score [1]: 0.03 (0.05) | Vitreous Chamber Inflammation score [1]: 0.23 (0.21) | Retinal Disruption score (600 μg axitinib suspension in ProVisc®, intravitreal bolus, 1 month, scale 0-5, mean (SD)): 0.10 (0.11)
